In patent US10822317B2, “Methods and compositions for wound healing” (QBiotics Limited, priority 2013, dated 2020):

Tested on: HaCaT cells
Experiment: HaCaT scratch repopulation with Mitomycin C (migration study)
Details: 1 μg/mL

Mitomycin C [reference compound]
cytotoxicity in the culture system: not be cytotoxic
